# Assay results: patent publication US7063946B2, “Methods, reagents, kits and apparatus for protein function analysis” (Meso Scale Technologies, LLC., priority 2001, dated 2006)
# Chains of the proteins cited; added tags and fusions are not shown. Lines headed by an entry give the natural chain unless they say otherwise; changes in a name come on top.
# UniProt Q06187: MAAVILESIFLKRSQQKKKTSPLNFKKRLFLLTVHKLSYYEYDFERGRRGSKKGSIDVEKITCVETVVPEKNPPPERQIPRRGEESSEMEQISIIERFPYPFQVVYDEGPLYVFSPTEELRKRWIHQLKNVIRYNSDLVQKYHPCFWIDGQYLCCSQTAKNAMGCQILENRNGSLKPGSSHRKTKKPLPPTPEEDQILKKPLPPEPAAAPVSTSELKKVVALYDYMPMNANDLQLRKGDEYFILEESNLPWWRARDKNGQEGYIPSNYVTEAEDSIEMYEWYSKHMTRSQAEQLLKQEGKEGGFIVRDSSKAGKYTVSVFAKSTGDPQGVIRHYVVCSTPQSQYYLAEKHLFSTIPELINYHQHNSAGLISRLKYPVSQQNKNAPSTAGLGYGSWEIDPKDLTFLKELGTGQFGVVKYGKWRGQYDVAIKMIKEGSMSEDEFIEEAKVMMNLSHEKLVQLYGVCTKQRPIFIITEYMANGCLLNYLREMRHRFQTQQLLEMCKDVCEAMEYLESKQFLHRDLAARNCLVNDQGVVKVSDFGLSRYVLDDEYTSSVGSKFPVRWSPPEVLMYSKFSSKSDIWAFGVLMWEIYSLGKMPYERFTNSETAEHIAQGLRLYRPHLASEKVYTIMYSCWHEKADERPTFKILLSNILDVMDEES
# Tests used:
# [1] = target: T1, BTK (Homo sapiens, UniProt Q06187); assay: Kinase inhibitor profiling, pEY phosphorylation; format: biochemical
# T1 construct: specificity data for proteins generated from a library of eighteen full-length clones; host or cells: rabbit reticulocyte lysate, TnT coupled in vitro transcription/translation (cell-free)
# [2] = target: T1, BTK; assay: Kinase inhibitor profiling, autophosphorylation; format: biochemical
structure (smiles),measurement,setting,value
C/C(O)=C(\C#N)C(=O)Nc1cc(Br)ccc1Br [LFM-A13],"Inhibition specificity towards pEY phosphorylation at 10X IC50, BTK",[1],M (medium inhibition (“M”=between 25 to 50% of the activity remaining))
same,"Inhibition specificity towards Autophosphorylation at 10X IC50, BTK",[2],L (low inhibition (“L”=between 50–75% of the activity remaining))
